# According to ChEMBL document CHEMBL4024757, “Application of the Ugi Multicomponent Reaction in the Synthesis of Reactivators of Nerve Agent Inhibited Acetylcholinesterase” (2017):
# Test system: Rattus norvegicus
# Experiment: Toxicity in Wistar rat assessed as lethality at 32 umol/kg, iv
# Settings: in vivo
row,Structure (SMILES),Activity
1,COc1ccc(CN(CC(=O)NCc2ccccc2)C(=O)CCCCCn2ccnc2/C=N/O)cc1,Non-Toxic
2,COc1ccc(CN(CC(=O)NC(C)C)C(=O)CCCCCn2cc[n+](C)c2/C=N\O)cc1.[I-],Non-Toxic
3,CCCCN(CC(=O)NCc1ccccc1)C(=O)CCCCCn1ccnc1/C=N/O,Non-Toxic
4,COc1ccc(CN(CC(=O)NCc2ccccc2)C(=O)CCCCCn2cc[n+](C)c2/C=N\O)cc1.[I-],Toxic
